From patent US20030099944A1, “Combination therapy involving drugs which target cellular proteins and drugs which target pathogen-encoded proteins” (priority 1998, published 2003)

Experiments:
HEL cells = assay: Cell-cycle progression by FACS analysis, HEL cells; assay type: cell-based; settings: 24 hours
Vero cells = assay: Toxicity by microscopic observation, Vero cells

## CC[C@H](CO)Nc1nc(NCc2ccccc2)c2ncn(C(C)C)c2n1 [Rosco, Roscovitine]
HEL cells
  concentration that blocked cell-cycle progression: ≥ 20 µM
Vero cells
  concentration tolerated without evidence of toxicity: 120 µM
